What was measured:
Type in all cases: cell-based
[1] = test system: cervical adenocarcinoma HeLa cells; assay: Cell viability neutral red uptake assay, HeLa; conditions: Homo sapiens, read-out: IC50 values ± SD in neutral red uptake assay
[2] = test system: cervical adenocarcinoma HeLa cells; assay: Cell viability MTT assay, HeLa; conditions: Homo sapiens, read-out: IC50 values ± SD in MTT assay
[3] = test system: normal fibroblasts (dermal fibroblasts CCD25Sk); assay: Cell viability neutral red uptake assay, fibroblasts; conditions: Homo sapiens, Fibroblast, read-out: IC50 values ± SD in neutral red uptake assay
[4] = test system: endometrial adenocarcinoma Ishikawa cells; assay: Cell viability MTT assay, Ishikawa; conditions: Homo sapiens, read-out: IC50 values ± SD in MTT assay
[5] = test system: normal fibroblasts (dermal fibroblasts CCD25Sk); assay: Cell viability MTT assay, fibroblasts; conditions: Homo sapiens, Fibroblast, read-out: IC50 values ± SD in MTT assay
[6] = test system: endometrial adenocarcinoma Ishikawa cells; assay: Cell viability neutral red uptake assay, Ishikawa; conditions: Homo sapiens, read-out: IC50 values ± SD in neutral red uptake assay

Question: For `COc1cc(O)c2c(=O)c(O)c(-c3ccc(O)cc3)oc2c1` [rhamnocitrin], which IC50 ([1]; 24 h) is on record?
Answer: > 50 µM

Question: And the IC50 ([1]; 48 h)?
Answer: 41.2 ± 3.5 µM

Question: And the IC50 ([2]; 24 h)?
Answer: > 50 µM

Question: What about the IC50 ([2]; 48 h) of the same compound?
Answer: 37 ± 2.1 µM

Question: And the IC50 ([3]; 24 h)?
Answer: > 50 µM

Question: What about the IC50 ([3]; 48 h) of the same compound?
Answer: > 50 µM

Question: What about the IC50 ([4]; 24 h) of the same compound?
Answer: > 50 µM

Question: And the IC50 ([4]; 48 h)?
Answer: 42.5 ± 2.6 µM

Question: What about the IC50 ([5]; 24 h) of the same compound?
Answer: > 50 µM

Question: And the IC50 ([5]; 48 h)?
Answer: > 50 µM

Question: What about the IC50 ([6]; 24 h) of the same compound?
Answer: > 50 µM

Question: What about the IC50 ([6]; 48 h) of the same compound?
Answer: 41.7 ± 2.5 µM

Reference: PMC10512030, “Prolidase-proline oxidase axis is engaged in apoptosis induction by birch buds flavonol santin in endometrial adenocarcinoma cell line” (Frontiers in Molecular Biosciences, 2023)
